These are literature values, as cited in US20060143718A1, “Transgenic animals for monitoring water quality” (priority 2000, published 2006).

For the series the following is noted: cited from earlier work.

With mercury [Hg], for the setting “fish muscle tissue vs water”, the “levels in fish muscle tissue compared with surrounding water” value is on record as “more than 40,000 times”. The bioconcentration (fish, in the food chain) was > 40,000 times.
